In PMC7488288, “Understanding and Improving the Membrane Permeability of VH032-Based PROTACs” (ACS Medicinal Chemistry Letters, 2020):

What was measured:
in vitro = details: PAMPA, pH 7.4, PAMPA permeability (Pe)
VHL = biological target: T1, VHL (Homo sapiens, UniProt P40337); experiment: Fluorescence polarization (FP) competitive binding assay; details: 15 nM VCB protein, 10 nM FAM-labeled HIF-1α peptide JC9, read-out: Kd (FP-derived)
T1 construct: each well solution containing 15 nM VCB

Compound	Papp at 7 h (in vitro)	Kd (VHL)
Cc1ncsc1-c1ccc(CNC(=O)[C@@H]2C[C@@H](O)CN2C(=O)[C@@H](OC(=O)Cc2ccccc2)C(C)(C)C)cc1 [Compound 3]	16 ×10⁻⁶ cm/s	
Cc1ncsc1-c1ccc(CNC(=O)[C@@H]2C[C@@H](O)CN2C(=O)[C@@H](NC(=O)Cc2ccccc2)C(C)(C)C)cc1 [Compound 4]		450 nM
